SMILES strings stand for the structures. The source made the active and inactive calls. The rule behind the calls is not given here.

For the test, the target named is T1, DNA repair protein REV1 (Homo sapiens) (UniProt Q9UBZ9).
T1 sequence (whole entry): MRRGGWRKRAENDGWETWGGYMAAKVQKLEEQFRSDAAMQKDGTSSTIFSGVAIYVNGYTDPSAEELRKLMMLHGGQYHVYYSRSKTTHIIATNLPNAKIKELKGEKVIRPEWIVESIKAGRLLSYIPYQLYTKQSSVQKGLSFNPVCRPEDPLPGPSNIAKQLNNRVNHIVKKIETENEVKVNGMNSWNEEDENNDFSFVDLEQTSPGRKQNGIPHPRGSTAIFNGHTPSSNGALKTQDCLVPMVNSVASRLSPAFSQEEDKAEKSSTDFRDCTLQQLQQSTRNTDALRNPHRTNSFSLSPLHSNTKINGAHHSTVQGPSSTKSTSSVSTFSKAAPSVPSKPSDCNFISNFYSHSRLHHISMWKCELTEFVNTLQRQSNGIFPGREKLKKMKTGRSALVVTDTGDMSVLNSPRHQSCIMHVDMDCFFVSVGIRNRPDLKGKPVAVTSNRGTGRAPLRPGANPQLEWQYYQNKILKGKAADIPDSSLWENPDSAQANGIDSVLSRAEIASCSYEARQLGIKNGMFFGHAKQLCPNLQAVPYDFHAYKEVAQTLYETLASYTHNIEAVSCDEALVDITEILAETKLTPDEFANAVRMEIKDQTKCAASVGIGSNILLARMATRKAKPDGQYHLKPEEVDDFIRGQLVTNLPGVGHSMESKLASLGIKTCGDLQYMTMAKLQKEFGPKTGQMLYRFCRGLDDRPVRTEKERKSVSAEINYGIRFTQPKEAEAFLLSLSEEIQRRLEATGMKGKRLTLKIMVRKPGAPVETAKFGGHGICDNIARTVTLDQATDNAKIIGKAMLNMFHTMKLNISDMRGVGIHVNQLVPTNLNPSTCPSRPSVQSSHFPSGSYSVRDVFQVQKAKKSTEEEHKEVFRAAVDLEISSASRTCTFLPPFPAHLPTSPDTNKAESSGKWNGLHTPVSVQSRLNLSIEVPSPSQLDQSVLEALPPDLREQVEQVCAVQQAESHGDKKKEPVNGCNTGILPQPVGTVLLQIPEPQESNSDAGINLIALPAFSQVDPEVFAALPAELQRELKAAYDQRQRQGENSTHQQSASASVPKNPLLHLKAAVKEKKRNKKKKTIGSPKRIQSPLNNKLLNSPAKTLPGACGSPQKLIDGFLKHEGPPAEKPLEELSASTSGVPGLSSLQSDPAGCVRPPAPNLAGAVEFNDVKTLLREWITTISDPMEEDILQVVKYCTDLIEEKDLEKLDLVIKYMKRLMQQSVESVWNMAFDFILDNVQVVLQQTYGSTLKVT
The test can be described thus: Binding affinity to C-terminal human REV-1 incubated for 30 mins by MST assay.
Regarding `CCCCc1ccc(-n2nnc(C(=O)N(C)C3CCS(=O)(=O)C3)c2C)cc1` (stereo not drawn), the outcome was inactive.

For `Cc1ccc(C(=O)N2CCN(c3ccccc3)CC2)cc1S(=O)(=O)N1CCOCC1`, the outcome was inactive.

On to `CC(=O)C(C)n1c(CN2CCN(c3cccc(Cl)c3)CC2)nc2c1c(=O)n(C)c(=O)n2C` (stereo not drawn), for which the result was inactive.

The record behind these values is ChEMBL document CHEMBL5576054, “Lead compound profiling for small molecule inhibitors of the REV1-CT/RIR Translesion synthesis Protein-Protein interaction” (Bioorg Med Chem, 2024).
